{"source": "patent US20250041310A1", "about": "“Combination Therapy Comprising A2A/A2B and PD-1/PD-L1 Inhibitors” (Incyte Corporation, priority 2020, published 2025)", "key": {"[1]": {"test_system": "primary T cells co-cultured with CHO-PD-L1 cells", "conditions": "NECA, together with an anti-PD1 reagent", "protocol": "In vitro the CHO-PD-L1 co-culture assay, T cells were treated in the presence of 20 CHO-PD-L1 cells with PD-1 antibody, and using 5′-N-ethylcarboxamide adenosine (NECA), an adenosine-mimicking reagent, to activate adenosine signaling.\nDay 0, plate 10,000 CHO PDL1+ cells in Plate 96 Tissue Culture Flat Bottom plate in 100 ul of CHO Media without antibiotics. On day 1, T Cells were thawed and resuspended in T cell media at 1×10^6 cells/ml. Media was removed from the CHO PDL1+ cells plates and 130 ul of T cell media was added. T cell media at 198 ul was added onto the compound plates at 2 ul, or −1:100 dilution and then re-suspended. 20 ul of compounds from the compound plates were added onto the CHO cell plates at a final dilution of compounds at 1:1000. 50 ul of T cells (50,000 cells) were added onto the plates with CHO cells to make a total of 200 ul volume and incubation was carried out at 37° C. for 72 hrs. After 3 days in culture, the supernatant was collected for an hIFNg and hIL2 cytokine assay run using ProCartaplex 2 plex kits (Life Technologies Cat #PPX-02) for hIFNg and hIL2 (Manufacturer's Protocol). The cytokine assay using ProCartaplex kits are run on a Flex Map 3D Luminex multiplexing platform."}, "[2]": {"test_system": "B16 melanoma", "assay": "In vivo efficacy study, B16 syngeneic melanoma model", "set-up": "species or system mouse", "text": "Compound 9 was further evaluated in the B16 melanoma model, an immunologically cold model, for its ability to break immune checkpoint resistance."}, "[3]": {"test_system": "CT-26 murine colon carcinoma", "conditions": "CT-26 syngeneic"}}}
{"smiles": "Cn1nc(-c2c(-c3cccc(C#N)c3)nc(N)c3nc(Cc4ccccn4)nn23)ccc1=O", "note": "[Compound 9, 3-(8-Amino-5-(1-methyl-6-oxo-1,6-dihydropyridazin-3-yl)-2-(pyridin-2-ylmethyl)-[1,2,4]triazolo[1,5-a]pyrazin-6-yl)benzonitrile]", "values": [{"measurement": "T cell function", "setting": "[1]", "value": "restore the T cell function"}, {"measurement": "single-agent activity", "setting": "[2]", "value": "modest but insignificant single-agent activity"}, {"measurement": "tumor growth inhibition (TGI) relative to vehicle", "setting": "[3]; 10 mg/kg BID in combination with an anti-PD-1 antibody", "value": 77, "unit": "%"}, {"measurement": "tumor growth inhibition (TGI) relative to the vehicle control", "setting": "[3]; single agent, 10 mg/kg BID", "value": 52, "unit": "%"}]}
